Consider one substance from PMC9060444 (2022).

The target of this assay is GST-ElpQ (B. burgdorferi strain B31). Kind of assay: SPR; Biacore T200; GST-ElpB or GST-ElpQ immobilised on the sensor chip; C1 complex (twofold series 0.6 to 150 nM), C1r or C1s enzyme or proenzyme injected as analyte; steady-state affinity fits; triplicate.

As to “human complement C1 complex (from UniProt P02745 23-245; P02746 28-253; P02747 29-245)”, the dissociation constant (Kd) was determined as 11 nM.
